Measured values published in patent US7732424B2, “Purine derivatives and methods of use thereof” (Inotek Pharmaceuticals Corporation, priority 2005, dated 2010).

By UniProt entry, the sequences of proteins in these tests, tags left out.
UniProt P30542, whole entry: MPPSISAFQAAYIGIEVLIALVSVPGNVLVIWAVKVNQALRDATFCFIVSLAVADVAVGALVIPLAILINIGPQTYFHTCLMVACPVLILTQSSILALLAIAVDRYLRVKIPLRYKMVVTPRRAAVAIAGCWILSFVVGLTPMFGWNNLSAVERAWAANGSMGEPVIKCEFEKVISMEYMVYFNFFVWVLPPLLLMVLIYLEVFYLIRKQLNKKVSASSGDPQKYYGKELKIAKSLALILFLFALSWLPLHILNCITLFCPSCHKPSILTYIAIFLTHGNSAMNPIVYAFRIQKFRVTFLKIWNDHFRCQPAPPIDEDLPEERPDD

Molecular target: human recombinant A1 adenosine receptor (Homo sapiens, UniProt P30542)
Assay: Adenosine A1 receptor binding, displacement of [^3H]CCPA in transfected CHO cells
Conditions: A1 versus A2A and A3, from Table 2
Procedure: Membranes for radioligand binding experiments were prepared from fresh or frozen cells as described in Klotz et al., Naunyn-Schmiedeberg's Arch. Pharmacol., 357:1-9 (1998). The cell suspension was then homogenized in ice-cold hypotonic buffer (5 mM Tris/HCl, 2 mM EDTA, pH 7.4) and the resultant homogenate was spun for 10 minutes (4° C.) at 1,000 g. The membranes were then sedimented from the supernatant for 30 minutes at 100,000 g and resuspended in 50 mM Tris/HCl buffer pH 7.4 (for A3 adenosine receptors: 50 mM Tris/HCl, 10 mM MgCl2, 1 mM EDTA, pH 8.25), frozen in liquid nitrogen at a protein concentration of 1-3 mg/mL and stored at −80° C.
Nonspecific binding was determined in the presence of 100 μM R-PIA and 1 mM theophylline, respectively. For details see Klotz et al., Naunyn-Schmiedeberg's Arch. Pharmacol., 357:1-9, 1998. All binding data were calculated by non-linear curve fitting using the program SCTFIT (De Lean et al., Mol. Pharm. 1982, 21:5-16).

Question: With `OC[C@H]1O[C@@H](n2cnc3c(NC4(CO)CCCC4)ncnc32)[C@H](O)[C@@H]1O` [I′-1] as the compound, how does the “Selectivity of binding for adenosine A1 receptor” value read?
Answer: Its value is “selectively bind the adenosine A1 receptor”.
